# Laboratory results as given in patent US20220041674A1 (published 2022).
# Sequences of proteins named here, by UniProt entry; tags and fusion partners are left off.
# UniProt P61073, whole entry: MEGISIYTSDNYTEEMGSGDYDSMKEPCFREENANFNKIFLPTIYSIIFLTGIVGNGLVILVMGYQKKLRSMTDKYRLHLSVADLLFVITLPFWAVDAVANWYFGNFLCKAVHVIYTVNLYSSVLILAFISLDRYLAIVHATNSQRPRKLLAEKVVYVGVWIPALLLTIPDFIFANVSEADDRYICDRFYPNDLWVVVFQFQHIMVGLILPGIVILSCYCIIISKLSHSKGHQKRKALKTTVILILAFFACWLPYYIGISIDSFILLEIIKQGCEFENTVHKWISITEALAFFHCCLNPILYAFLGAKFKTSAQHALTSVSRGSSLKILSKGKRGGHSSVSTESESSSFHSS
# UniProt P70658, whole entry: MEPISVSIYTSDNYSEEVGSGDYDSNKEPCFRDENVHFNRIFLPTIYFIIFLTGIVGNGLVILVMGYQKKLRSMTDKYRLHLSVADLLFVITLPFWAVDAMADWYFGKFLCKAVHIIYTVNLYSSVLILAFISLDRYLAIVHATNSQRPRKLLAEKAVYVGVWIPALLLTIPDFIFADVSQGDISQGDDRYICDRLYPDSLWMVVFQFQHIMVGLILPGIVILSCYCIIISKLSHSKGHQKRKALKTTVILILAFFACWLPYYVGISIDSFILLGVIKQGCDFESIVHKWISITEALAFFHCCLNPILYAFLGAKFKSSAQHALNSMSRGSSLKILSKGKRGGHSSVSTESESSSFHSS
# Columns and labels:
# [1] = molecular target: human chemokine receptor 4 (CXCR4) (human) (UniProt P61073); test: competitive radioligand binding on Jurkat cells, [125I]FC131 0.1 nM, 2 h RT
# [2] = molecular target: human chemokine receptor 4 (CXCR4) (human) (UniProt P61073); test: competitive radioligand binding on Jurkat cells (400.000 cells/sample), [125I]FC-131
# [3] = molecular target: T1, murine chemokine receptor 4 (CXCR4) (murine, UniProt P70658 1-359); test: competitive radioligand binding on Eµ-Myc1080 mouse B-cell lymphoma cells, [125I]CPCR4.3
# T1 construct: whole, on cells; receptor present on whole cells; also called mCXCR4; mouse CXCR4
# Description: To be able to assess the effect of structural modifications in the SAR study on CXCR4 binding affinity, data for ^natGa-pentixafor (^natGa-3) and ^natLu-pentixather (^natLu-4) are also included in Table 1a.
# Binding assays were performed using Jurkat cells (400,000/well) and ([¹²⁵I]FC131) (c = 0.1 nM) as the radioligand for hCXCR4 and Eμ-Myc1080 mouse B-cell lymphoma cells and [¹²⁵I]CPCR4.3 as radioligand. Cells were incubated in HBSS (1% BSA) at RT for 2 h. Data are expressed as mean ± SD (n = 3). ^{[a]}4-aminobenzoic acid spacer is substituted by 4-aminomethylbenzoic acid (see FIG. 1 (5-16), ^{[b]}(R)-2,3-diaminopropanoic acid.
# [4] = molecular target: T1, murine chemokine receptor 4 (CXCR4); test: competitive radioligand binding on Eµ-Myc1080 cells (200.000 cells/sample), [125I]CPCR4.3; metal complex not stated in this table (natLu taken from Table 1a)
Substance,IC50 [1],IC50 [2],IC50 [3],IC50 [4]
cyclo[i-yorn′([natGa]DOTA-rG-(4-amino)benzoyl-)RNaIG ([natGa]P4) (peptide),1.4 nM,1.4 nM,,
"^natLu-pentixather, natLu complex of cyclo(D-3-iodo-Tyr1-D-[NMe]Orn2(AMBS-DOTA)-Arg3-Nal4-Gly5) (peptide)",14.6 nM,,567 nM,
cyclo[i-yorn′([natLu]DOTA-dapG-(4-amino)benzoyl-)RNaIG ([natLu]P2) (peptide),3.5 nM,3.5 nM,,
cyclo[i-yorn′([natBi]DOTA-rG-(4-amino)benzoyl-)RNaIG ([natBi]P4) (peptide),,2.9 nM,,
cyclo[i-yorn′([natLu]DOTA-rG-(4-amino)benzoyl-)RNaIG ([natLu]P4) (peptide),2.1 nM,2.1 nM,37.1 nM,48.5 nM
cyclo[i-yorn′([natBi]DOTA-ra-(4-amino)benzoyl-)RNaIG ([natBi]P5) (peptide),,1.8 nM,,
"cyclo[i-yorn′(AMBF3(methyl(1H-1,2,3-triazol-4-yl)-rG-4-amino)benzoyl-)RNaIG] (F3) (peptide)",,2.9 nM,,
cyclo[i-yorn′([natBi]DOTA-dapG-(4-amino)benzoyl-)RNaIG ([natBi]P2) (peptide),,3.5 nM,,
cyclo[i-yorn′([natGa]DOTA-ra-(4-amino)benzoyl-)RNaIG ([natGa]P5) (peptide),2.6 nM,2.6 nM,,
cyclo[i-yorn′([natLu]DOTA-ra-(4-amino)benzoyl-)RNaIG ([natLu]P5) (peptide),1.7 nM,1.7 nM,48.5 nM,61.4 nM
"^natGa-pentixather, natGa complex of cyclo(D-3-iodo-Tyr1-D-[NMe]Orn2(AMBS-DOTA)-Arg3-Nal4-Gly5) (peptide)",6.1 nM,,,
cyclo[i-yorn′([natY]DOTA-rG-(4-amino)benzoyl-)RNaIG ([natY]P4) (peptide),,2.1 nM,,
cyclo[yorn′([natLu]DOTA-ra-(4-amino)benzoyl-)RNaIG ([natLu]P5b) (peptide),1.5 nM,1.5 nM,,
cyclo[i-yorn′([natY]DOTA-ra-(4-amino)benzoyl-)RNaIG ([natY]P5) (peptide),,1.6 nM,,
cyclo[i-yorn′([natLu]DOTA-kG-(4-amino)benzoyl-)RNaIG ([natLu]P3) (peptide),,,61.4 nM,37.1 nM
